The numbers were not newly measured in patent publication US20250241992A1, “COMPOSITIONS AND METHODS FOR TREATING METABOLIC DISEASES” (Gila Therapeutics, Inc., priority 2018, published 2025), which cites them from elsewhere.

The conditions of the data set: acute increase of salivary PYY(3-36).

For the substance PYY(3-36), the “one hour food intake” value was “decrease in one hour food intake in a dose dependent manner”.
